Measurements reported in PubChem BioAssay AID652083 (The Scripps Research Institute Molecular Screening Center, 2013).
Some of the results follow. Calls of active or inactive are those of the source.

System: BZD (central)
Test: PubChem AID 652083
Settings: CEREP radioligand binding panel, % inhibition at 10 uM, active compounds read high

## COC(=O)c1cc(Br)cnc1N1CCC(NC2CCCCC2)C(O)C1 (stereo unspecified)
  inhibition of specific binding: inactive: -18%
